Laboratory results published in patent US20230391730A1, “INHIBITORS OF THE BROMODOMAIN PHD FINGER TRANSCRIPTION FACTOR (BPTF) AS ANTI-CANCER AGENTS” (Regents of the University of Minnesota, priority 2020, published 2023).
Where two headings read alike, the source gives them in different places.

Columns and labels:
BPTF bromodomain [1] = molecular target: T1, BPTF bromodomain (Homo sapiens, UniProt Q12830); conditions: reported; cited from earlier work
BPTF bromodomain [2] = molecular target: T1, BPTF bromodomain; experiment: BPTF AlphaScreen competitive inhibition assay; assay type: binding; design: 30 nM for His9-tagged BPTF bromodomain and 50 nM for the biotinylated peptide were used; made in house

SMILES | IC50 (BPTF bromodomain [2]) | further results
COC(=O)c1cccc(NC(=O)N[C@H]2CCN(c3ccnc(Nc4ccc(F)cc4)n3)C2)c1 [AU1, reference compound] | – | Kd (BPTF bromodomain [1]): 2.8 µM
Cn1ncc(N[C@@H]2CCNC2)c(Cl)c1=O [Compound 1] | 7.7 to 31 µM | –
Cn1ncc(N[C@H]2CCNC2)c(Cl)c1=O [Compound 2] | 7.7 to 31 µM | –
Cn1ncc(NC2CNC2)c(Cl)c1=O [Compound 4, 5-(azetidin-3-ylamino)-4-chloro-2-methylpyridazin-3(2H)-one] | – | IC50 (BPTF bromodomain [2]; read-out: BPTF AlphaScreen IC50): 7.7 to 31 µM
